## Measured affinities in a library of Ab-14 heavy chain variants

Antigen: PDVDLGDISGINAS, a 14-residue peptide of the SARS-CoV-2 spike HR2 region.

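The starting antibody came from a phage panning campaign against this peptide. AAYL49 was designed without a model: most single CDR substitutions and a random sample of double and triple ones. AlphaSeq pools MATa yeast showing the antibodies with MATalpha yeast showing the peptide. Mating (16 h, 30 °C) was followed by selection of diploids and sequencing of their barcodes. A regression on co-assayed BCL2-family reference pairs converts the normalised counts of each replicate to an apparent Kd. Each pool was mated in three replicate cultures.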

The variants keep the light chain, the linker and the frameworks of Ab-14 (scFv order VH, a (GGGGS)3 linker, VL).
VH: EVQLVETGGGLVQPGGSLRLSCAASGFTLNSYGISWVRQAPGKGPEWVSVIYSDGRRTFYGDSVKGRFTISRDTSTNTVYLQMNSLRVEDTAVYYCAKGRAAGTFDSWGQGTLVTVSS
VL: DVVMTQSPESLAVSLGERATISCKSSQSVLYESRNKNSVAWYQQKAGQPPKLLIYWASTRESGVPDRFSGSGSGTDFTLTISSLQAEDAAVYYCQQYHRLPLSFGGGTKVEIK

Variants are written as CDR1, CDR2 and CDR3 of the heavy chain (limits as in the source). Parent: GFTLNSYGIS, VIYSDGRRTFYGDSVK, GRAAGTFDS.
Scale: log10 of Kd in nM, estimated from mating counts; low values are strong binders.
The mean shown is taken over the replicates in which the pair was detected.
A pair that was not seen in any replicate is written "no signal"; this usually means weak binding, but a binder can also be missed.
Entries are sorted by rising average, undetected variants last.
In this assay the parent's reference entry averaged 0.65; its copy inside this library read 4.11 (one replicate of three).
Empty control strains, which show no peptide, gave a signal in 15% of pairings with library AAYL49; the median was 4.06 and 95% of these signals were weaker than 2.83. No background was subtracted. The control count says in how many pairings with the empty strains this scFv gave a signal.

| CDR-H1 | CDR-H2 | CDR-H3 | mean log10 Kd (nM) | seen in | signal with controls |
|---|---|---|---|---|---|
| GFTLTSYGIS | VIYSDGRRTHYGDSVK | GRAAGTFDK | 1.29 | 3 of 3 | 0 of 9 |
| GFTLNSYGIS | VIYSDGSRTFYGDSVK | GRAAGTFDF | 1.79 | 3 of 3 | 0 of 9 |
| GFTLNSYGIS | VIYSDGARTFYGDSIK | GWAAGTFDS | 2.52 | 3 of 3 | 0 of 9 |
| GKTHNSYGIS | VIYSDGRRTFYGDSVW | GRAAGTFDS | 2.64 | 1 of 3 | 0 of 9 |
| TFTLNSYGIS | VIYSDGRRTFYGHSVK | GRAAGTFDS | 2.83 | 3 of 3 | 0 of 9 |
| GFWLNSYGIS | DIYNDGRRTFYGDSVK | GRAAGTFDS | 3.00 | 1 of 3 | 0 of 9 |
| GETLNSYGIS | VIYSDGRRMFYGDSVN | GRAAGTFDS | 3.22 | 3 of 3 | 3 of 9 |
| GFTLNSYGIS | VIYSDGRRTFYGISMK | GHAAGTFDS | 3.30 | 1 of 3 | 2 of 9 |
| GFTLNSYGIS | VIASDGRRTFYGDAVT | GRAAGTFDS | 3.51 | 1 of 3 | 1 of 9 |
| GFTLNSYGII | VIYSDGRRFYYGDSVK | GRAAGTFDS | 3.64 | 2 of 3 | 1 of 9 |
| GFTLLSYGIS | VIYVDGRRTFLGDSVK | GRAAGTFDS | 3.90 | 1 of 3 | 4 of 9 |
| GFTPNHYGIA | VIYSDGRRTFYGDSVK | GRAAGTFDS | 3.96 | 1 of 3 | 1 of 9 |
| GFTLNFYGIS | VIYSDGRRMFIGDSVK | GRAAGTFDS | 4.12 | 1 of 3 | 2 of 9 |
| GFTLNSYGIS | VIYSDGRRTDYGDSKK | GRAKGTFDS | 4.18 | 1 of 3 | 0 of 9 |
| WFTLNSYGIS | VIYSDWRRTFYGDSVK | GRAAGCFDS | 4.24 | 2 of 3 | 2 of 9 |
| GFTLNSRGIS | VEYSDGRRTFYGDSVK | GRAAGTVDS | 4.27 | 1 of 3 | 1 of 9 |
| GFTLNVYGIS | PIYIDGRRTFYGDSVK | GRAAGTFDS | 4.29 | 2 of 3 | 4 of 9 |
| GSTLNSYGIY | VIYSDGRRTFYGDSGK | GRAAGTFDS | 4.48 | 2 of 3 | 4 of 9 |
| GFTWNSYGIS | VIYSDGRRTFYGDSVE | GRAASTFDS | 5.05 | 2 of 3 | 2 of 9 |
| GFTLNSNGIS | VEYSDGRRTFYGDSVK | GRAAGTFDV | 5.78 | 1 of 3 | 4 of 9 |
| GFTLNSYGIS | VIYSDDRRKFEGDSVK | GRAAGTFDS | no signal | 0 of 3 | 0 of 9 |
| GFTPNSRGIS | VILSDGRRTFYGDSVK | GRAAGTFDS | no signal | 0 of 3 | 0 of 9 |
| GFTLNSYGIS | HIYSDGRVTFYGDSDK | GRAAGTFDS | no signal | 0 of 3 | 1 of 9 |
| TFGLNSWGIS | VIYSDGRRTFYGDSVK | GRAAGTFDS | no signal | 0 of 3 | 0 of 9 |

Continued, with the values leading:

| mean log10 Kd (nM) | seen in | signal with controls | CDR-H1 | CDR-H2 | CDR-H3 |
|---|---|---|---|---|---|
| no signal | 0 of 3 | 0 of 9 | YFTTNSYGIS | VIYSDGRRTTYGDSVK | GRAAGTFDS |
| no signal | 0 of 3 | 0 of 9 | GYTLNSYGSS | VIYSDGRRTFYEDSVK | GRAAGTFDS |
| no signal | 0 of 3 | 1 of 9 | GFTLNSYGIS | VITSMGRRTFYGDSVK | GMAAGTFDS |
| no signal | 0 of 3 | 0 of 9 | GFTLNSYGIS | VIYSYGRRTFYGDSVK | GRAAGTYDN |
| no signal | 0 of 3 | 0 of 9 | GFTLNMYGIS | VIYSDGRRTFYGDSVK | LRVAGTFDS |
| no signal | 0 of 3 | 0 of 9 | GFTLNSYCIS | VIYSDGRRTFYGDSVK | GMAAGTGDS |
| no signal | 0 of 3 | 2 of 9 | GFTLNSYGIS | VIYSDGRCEFYGDSVK | GRAAGTFDS |
| no signal | 0 of 3 | 0 of 9 | GFTLNSYIIS | VIYSDGERTFYGDSVP | GRAAGTFDS |
| no signal | 0 of 3 | 2 of 9 | GFTLNSYGRS | VIYSDGRRTFYGDFVK | GRAEGTFDS |
| no signal | 0 of 3 | 1 of 9 | GETLNSYGIS | VIYSDGRRTFYGDSVT | GRAAGTFDS |
| no signal | 0 of 3 | 1 of 9 | GFILNSYGIS | VIYSDGRRTFYGDSVK | GRAMHTFDS |
| no signal | 0 of 3 | 1 of 9 | GFTLFSMGIS | VPYSDGRRTFYGDSVK | GRAAGTFDS |
| no signal | 0 of 3 | 0 of 9 | GFTLNSYGIS | VIYSDGRRTEYKDSVK | GRAEGTFDS |
| no signal | 0 of 3 | 0 of 9 | GFTLNSYGIS | VIVSEGRRTFYGDSVK | GRAAGTMDS |
| no signal | 0 of 3 | 4 of 9 | GFTLNSYGIS | VIYSDLRRTFCGDSVK | CRAAGTFDS |
| no signal | 0 of 3 | 0 of 9 | GFTLASYGIW | VIYSDGRRTFYGDSVK | TRAAGTFDS |
| no signal | 0 of 3 | 0 of 9 | GFTLNSYGMS | VIYSDGRRTDYGDSSK | GRAAGTFDS |
| no signal | 0 of 3 | 0 of 9 | GFGLNSYGIS | VICSDGRRTFYGDSVK | GRAAGTYDS |
| no signal | 0 of 3 | 2 of 9 | GFTLNSYGLS | VIYSDGRRTFYGDSVQ | GRAAGTFDG |
| no signal | 0 of 3 | 1 of 9 | GFTLNSYLIS | VIYSDGRRTFYGPSVK | GRAAGTFDW |
| no signal | 0 of 3 | 0 of 9 | GFTLNSYGIS | VIRSDGRCTFYGDSVK | GRAAGFFDS |
| no signal | 0 of 3 | 1 of 9 | GFTLNSYGIS | VIYSTGRRYFHGDSVK | GRAAGTFDS |
| no signal | 0 of 3 | 0 of 9 | GFTRNSYGIS | VIYSDGMRTFYGDSVK | GRAAGTFPS |
| no signal | 0 of 3 | 0 of 9 | GFTLNGYGIS | VIYSDGRRTFYGDSVK | GCAAGTFDS |

The first 8 entries again:

| CDR-H1 | CDR-H2 | CDR-H3 | mean log10 Kd (nM) | seen in | signal with controls |
|---|---|---|---|---|---|
| GFTLTSYGIS | VIYSDGRRTHYGDSVK | GRAAGTFDK | 1.29 | 3 of 3 | 0 of 9 |
| GFTLNSYGIS | VIYSDGSRTFYGDSVK | GRAAGTFDF | 1.79 | 3 of 3 | 0 of 9 |
| GFTLNSYGIS | VIYSDGARTFYGDSIK | GWAAGTFDS | 2.52 | 3 of 3 | 0 of 9 |
| GKTHNSYGIS | VIYSDGRRTFYGDSVW | GRAAGTFDS | 2.64 | 1 of 3 | 0 of 9 |
| TFTLNSYGIS | VIYSDGRRTFYGHSVK | GRAAGTFDS | 2.83 | 3 of 3 | 0 of 9 |
| GFWLNSYGIS | DIYNDGRRTFYGDSVK | GRAAGTFDS | 3.00 | 1 of 3 | 0 of 9 |
| GETLNSYGIS | VIYSDGRRMFYGDSVN | GRAAGTFDS | 3.22 | 3 of 3 | 3 of 9 |
| GFTLNSYGIS | VIYSDGRRTFYGISMK | GHAAGTFDS | 3.30 | 1 of 3 | 2 of 9 |

From the AlphaSeq antibody data of Engelhart et al. 2022 (doi:10.1038/s41597-022-01779-4), copy in the FLAb collection.